Experimental data as given in the NIST ThermoML archive (doi:10.1016/j.tca.2010.05.009).

Assay: Molar enthalpy of transition or fusion
Conditions: Crystal; Differential scanning calorimeter

SMILES: CC(C)Cc1ccc(C(C)C(=O)O)cc1 (stereo unspecified) [ibuprofen]
- Molar enthalpy of transition or fusion: 6.21 ± 0.741 kcal/mol

Numbers after ± are expanded uncertainties.
